For one molecule, IC50 results are on record in BindingDB's records for 27966945.

Amino acid sequences for entries named in this document (tags omitted). Residues count along the entry.
UniProt P23415, 29-457 limits assumed: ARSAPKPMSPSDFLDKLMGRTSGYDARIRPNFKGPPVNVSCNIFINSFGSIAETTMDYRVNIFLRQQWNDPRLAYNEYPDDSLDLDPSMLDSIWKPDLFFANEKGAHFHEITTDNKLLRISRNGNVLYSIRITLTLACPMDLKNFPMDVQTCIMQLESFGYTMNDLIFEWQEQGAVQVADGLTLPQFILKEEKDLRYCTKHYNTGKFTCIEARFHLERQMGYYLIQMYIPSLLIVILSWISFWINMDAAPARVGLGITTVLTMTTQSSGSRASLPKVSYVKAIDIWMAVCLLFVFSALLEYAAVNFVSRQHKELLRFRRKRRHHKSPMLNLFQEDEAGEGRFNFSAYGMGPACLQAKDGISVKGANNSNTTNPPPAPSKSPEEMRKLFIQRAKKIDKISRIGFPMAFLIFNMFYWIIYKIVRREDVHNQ
UniProt P48167, 23-497 limits assumed: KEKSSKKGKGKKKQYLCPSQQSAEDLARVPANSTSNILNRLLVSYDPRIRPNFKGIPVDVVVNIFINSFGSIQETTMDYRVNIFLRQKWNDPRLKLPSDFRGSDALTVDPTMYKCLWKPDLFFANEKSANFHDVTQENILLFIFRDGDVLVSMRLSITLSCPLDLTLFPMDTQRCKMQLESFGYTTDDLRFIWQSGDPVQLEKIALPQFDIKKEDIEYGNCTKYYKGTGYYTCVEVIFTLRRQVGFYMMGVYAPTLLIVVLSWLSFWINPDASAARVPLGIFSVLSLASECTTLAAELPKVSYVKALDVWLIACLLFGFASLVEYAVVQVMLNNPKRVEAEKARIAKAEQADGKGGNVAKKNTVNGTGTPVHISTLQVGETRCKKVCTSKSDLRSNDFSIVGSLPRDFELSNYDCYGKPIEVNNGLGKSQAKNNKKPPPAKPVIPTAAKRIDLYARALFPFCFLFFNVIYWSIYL

Experiment [1] deals with Glycine receptor subunit alpha-1/beta (Homo sapiens, UniProt P23415+P48167). Put plainly: Antagonist activity at recombinant human glycine receptor alpha 1 beta expressed in human tsA201 cells assessed as inhibition of glycine-induced receptor activation after 30 mins by FLIPR membrane potential blue assay.
Experiment [2] has as its target Glycine receptor subunit alpha-1 (Homo sapiens, UniProt P23415). Put plainly: Antagonist activity at recombinant human glycine receptor alpha 1 expressed in human tsA201 cells assessed as inhibition of glycine-induced receptor activation after 30 mins by FLIPR membrane potential blue assay.

For the molecule `O=C1/C(=N/O)[C@@H]2OCC=C3CN4CC[C@]56c7ccccc7N1[C@H]5[C@H]2[C@H]3C[C@H]46`, the IC50 in experiment [1] worked out at 214 nM; in experiment [2], 98 nM.
